The Km is the concentration of substrate that gives half-maximal velocity. What is called Kd is the equilibrium constant for the complex coming apart.

The subject of data set [1] is Nc1ncnc2c1ncn2[C@@H]1O[C@H](COP(=O)(O)OP(=O)(O)OP(=O)(O)O)[C@@H](O)[C@H]1O. As to the kind of experiment: purified protein. To be noted: basal, no nucleosome, ATP:MgCl2:TRIS base 1:1:2, 37°C.
The test system of data set [2] is hIno80 core complex (wild type): Ino80ΔN, actin, Arp4, Arp5, Arp8, Ies2, Ies6, Tip49a, Tip49b (human). As to the kind of experiment: MST. The note with it: MST: 25 mM HEPES, 50 mM NaCl, 1 mM TCEP, 10% glycerol, pH 8.0, 37 C, 100 nM nucleosome, ligand experiments with 5 mM MgCl2.
The test system of data set [3] is hIno80 core complex ΔArp5 ΔIes6 (human). Description: MST. To be noted: MST: 25 mM HEPES, 50 mM NaCl, 1 mM TCEP, 10% glycerol, pH 8.0, 37 C, 100 nM nucleosome; ligand experiments with 5 mM MgCl2.
Data set [4] relates to hIno80 core complex ΔIes2 (human). Description: MST. To be noted: MST: 25 mM HEPES, 50 mM NaCl, 1 mM TCEP, 10% glycerol, pH 8.0, 37 C, 100 nM nucleosome; ligand experiments with 5 mM MgCl2.
The target in data set [5] is human H2A-containing nucleosome labeled on histone H3 with AlexaFluor 647 (human) (UniProt P04908). As to the kind of experiment: MST; 1 mM ATP, 5 mM MgCl2. The note with it: complex.
Data set [6] shares this target. Description: MST; 1 mM ATP + 250 uM IP6, 5 mM MgCl2. The note with it: complex.
Data set [7] concerns the target human H2A.Z-containing nucleosome (human) (UniProt P0C0S5). As to the kind of experiment: MST; labelled nucleosome fixed at 100 nM, two fold serial dilution of Ino80 complex; 25 mM HEPES, 50 mM NaCl, 1 mM TCEP, 10% glycerol, pH 8.0; 37°C; Kd fitted on temperature jump data.
Data set [8] has as its target human H2A-containing nucleosome labeled on histone H3 with AlexaFluor 647 (human) (UniProt P04908). The description is as above.
Data set [9] has the same target. Description: MST; no ligand, 5 mM MgCl2. To be noted: complex.
The target is the same in data set [10]. As to the kind of experiment: MST; +IP6, +ATP, 5 mM MgCl2. To be noted: complex.
For data set [11] the target is unchanged. Description: MST; 5 mM MgCl2, no ligand. To be noted: complex.
For data set [12] the target is unchanged. As to the kind of experiment: MST; as a7 but in the presence and absence of ligands: 1 mM ATP, IP6 (250 μM by the legend, 2 mM by the methods), 5 mM MgCl2.
The target is the same in data set [13]. As to the kind of experiment: MST; +ATP, 5 mM MgCl2. To be noted: complex.

In the case of hIno80ΔIes2 complex (Homo sapiens), in data set [1], the Km amounted to 273 ± 36 µM and the kcat was 2.8 ± 0.1 ATP/complex/min.
For the substance “hIno80ΔArp5/Ies6/Ies2 complex (Homo sapiens)”, in data set [1], the Km worked out at 244 ± 116 µM and the kcat was determined as 1.2 ± 0.2 ATP/complex/min.
On to human H2A mononucleosome (Table 1), for which the Kd in data set [2] amounted to 20.7 nM; in [3], 106 nM; in data set [4], 29.7 nM.
Turning to hIno80ΔArp5/Ies6 complex (Homo sapiens), in [1], the Km stood at 225 ± 63 µM and the kcat is recorded as 2.4 ± 0.2 ATP/complex/min.
Turning to human H2A-NCP, 100 bp overhang, H3AF647, the Kd in data set [2] (5 mM MgCl2, 1 mM ATP, IP6 (250 uM in Figure 3 legend; 2 mM in Methods)) is 321 nM; in [2] (5 mM MgCl2, ligand label not in material (probably no ligand)) it was 22.9 nM; in [2] (5 mM MgCl2, ligand label not in material), 53.3 nM.
With “human Ino80 core complex (hIno80) (from UniProt Q9ULG1 267-1556; P60709 1-375; O96019 1-429; Q9H9F9 1-607; Q9H981 1-624; Q9C086 1-356; Q6PI98 1-192; Q9Y265 1-456; Q9Y230 1-463)”, the Kd in [5] was 53 nM; in data set [6], 321 nM; in data set [7], 54.1 nM; in data set [8], 20.7 nM; in data set [9], 23 nM; in data set [10] it was 321 nM. The values for the Kd in [11] and in data set [13] were 22.9 nM and 53.3 nM, respectively. For the same substance, the fold decrease in affinity in the presence of IP6 and ATP in [12] is above 10 fold.
In data set [2], human H2A.Z mononucleosome (Table 1) returned a Kd of 54.1 nM.
“hIno80ΔIes2 complex (from UniProt Q9ULG1 267-1556; P60709 1-375; O96019 1-429; Q9H9F9 1-607; Q9H981 1-624; Q6PI98 1-192; Q9Y265 1-456; Q9Y230 1-463)” had a dissociation constant Kd in data set [8] of 29.7 nM.
On the same count and under the same terms, next, “hIno80ΔArp5/Ies6 complex (from UniProt Q9ULG1 267-1556; P60709 1-375; O96019 1-429; Q9H981 1-624; Q9C086 1-356; Q9Y265 1-456; Q9Y230 1-463)”: 106 nM.
